Molecular target: T1, histamine H2 receptors (Cavia porcellus, UniProt P47747)
T1 construct: histamine-induced heart rate increase (chronotropic), pA2
Assay: Antagonism to histamine H2 receptors (isolated guinea pig atria, histamine-induced heart rate increase)
Design: species or system guinea pigs (male Hartley)
Details: guinea pig atrium, 37° C.

Amino acid sequences for entries named in this document (tags omitted).
UniProt P47747, whole entry: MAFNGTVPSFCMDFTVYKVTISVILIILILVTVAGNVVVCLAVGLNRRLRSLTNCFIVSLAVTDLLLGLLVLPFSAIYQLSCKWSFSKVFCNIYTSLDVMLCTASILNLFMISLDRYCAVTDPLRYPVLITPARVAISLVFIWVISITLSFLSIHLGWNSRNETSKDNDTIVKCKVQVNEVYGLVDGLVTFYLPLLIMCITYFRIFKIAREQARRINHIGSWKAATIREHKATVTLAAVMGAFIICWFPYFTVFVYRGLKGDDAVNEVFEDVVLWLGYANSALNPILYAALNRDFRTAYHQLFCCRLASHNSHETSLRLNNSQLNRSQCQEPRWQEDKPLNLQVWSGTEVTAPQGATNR

SMILES: CN/C(=N/CCSCc1nc[nH]c1C)NC#N [cimetidine, reference compound]
- PA2 value: 6.00

Source: patent US4587254A, “1,3,4-thiadiazole derivatives, process for the production thereof and use thereof as antiulcer agent” (Wakamoto Pharmaceutical Co., Ltd., priority 1983, dated 1986)
